From patent publication US11912763 (dated 2024)

Target: human CLDN18.2 (human, UniProt P56856)
Assay: ELISA

EC50: 0.44 nM
B1: LB305 CLDN18.2 arm (antibody)
chain 1: QVQLVQSGAEVKKPGSSVKVSCKASGYAFSNYLIEWVKQAPGQGLEWIGLINPGSGGTNYNEKFKGKATITADKSTSTAYMELSSLRSEDTAVYYCARVYYGNSFAYWGQGTLVTVSS
chain 2: DIVMTQSPDSLAVSLGERATISCKSSQSLLNSGNQKNYLTWYQQKPGQPPKLLIYWASTRESGVPDRFSGSGSGTDFTLTISSLQAEDVAVYYCQNDYFYPFTFGQGTKLEIK
